The chains behind the UniProt entries cited, without tags or fusion partners. Residues count along the entry.
UniProt P05106, 27-788 limits assumed: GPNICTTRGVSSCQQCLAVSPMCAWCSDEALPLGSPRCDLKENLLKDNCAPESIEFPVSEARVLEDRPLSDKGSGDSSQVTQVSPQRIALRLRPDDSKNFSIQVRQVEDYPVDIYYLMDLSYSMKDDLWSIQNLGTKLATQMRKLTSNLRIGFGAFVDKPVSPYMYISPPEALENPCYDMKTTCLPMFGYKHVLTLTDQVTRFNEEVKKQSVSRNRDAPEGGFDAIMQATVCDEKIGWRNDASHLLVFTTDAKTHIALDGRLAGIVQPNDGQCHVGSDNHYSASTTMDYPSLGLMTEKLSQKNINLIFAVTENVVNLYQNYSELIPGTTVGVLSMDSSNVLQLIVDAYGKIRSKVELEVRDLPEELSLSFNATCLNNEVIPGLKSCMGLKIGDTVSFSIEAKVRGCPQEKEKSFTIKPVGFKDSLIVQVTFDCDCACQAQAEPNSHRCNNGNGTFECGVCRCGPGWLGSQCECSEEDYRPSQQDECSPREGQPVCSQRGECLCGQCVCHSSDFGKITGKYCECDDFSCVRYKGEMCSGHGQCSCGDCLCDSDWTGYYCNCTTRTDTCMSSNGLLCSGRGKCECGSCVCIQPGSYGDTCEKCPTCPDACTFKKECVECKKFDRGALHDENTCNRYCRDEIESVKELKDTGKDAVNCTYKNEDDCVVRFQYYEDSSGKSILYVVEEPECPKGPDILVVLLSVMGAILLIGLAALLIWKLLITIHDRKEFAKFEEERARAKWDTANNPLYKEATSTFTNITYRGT
UniProt P08514, 32-887 limits assumed: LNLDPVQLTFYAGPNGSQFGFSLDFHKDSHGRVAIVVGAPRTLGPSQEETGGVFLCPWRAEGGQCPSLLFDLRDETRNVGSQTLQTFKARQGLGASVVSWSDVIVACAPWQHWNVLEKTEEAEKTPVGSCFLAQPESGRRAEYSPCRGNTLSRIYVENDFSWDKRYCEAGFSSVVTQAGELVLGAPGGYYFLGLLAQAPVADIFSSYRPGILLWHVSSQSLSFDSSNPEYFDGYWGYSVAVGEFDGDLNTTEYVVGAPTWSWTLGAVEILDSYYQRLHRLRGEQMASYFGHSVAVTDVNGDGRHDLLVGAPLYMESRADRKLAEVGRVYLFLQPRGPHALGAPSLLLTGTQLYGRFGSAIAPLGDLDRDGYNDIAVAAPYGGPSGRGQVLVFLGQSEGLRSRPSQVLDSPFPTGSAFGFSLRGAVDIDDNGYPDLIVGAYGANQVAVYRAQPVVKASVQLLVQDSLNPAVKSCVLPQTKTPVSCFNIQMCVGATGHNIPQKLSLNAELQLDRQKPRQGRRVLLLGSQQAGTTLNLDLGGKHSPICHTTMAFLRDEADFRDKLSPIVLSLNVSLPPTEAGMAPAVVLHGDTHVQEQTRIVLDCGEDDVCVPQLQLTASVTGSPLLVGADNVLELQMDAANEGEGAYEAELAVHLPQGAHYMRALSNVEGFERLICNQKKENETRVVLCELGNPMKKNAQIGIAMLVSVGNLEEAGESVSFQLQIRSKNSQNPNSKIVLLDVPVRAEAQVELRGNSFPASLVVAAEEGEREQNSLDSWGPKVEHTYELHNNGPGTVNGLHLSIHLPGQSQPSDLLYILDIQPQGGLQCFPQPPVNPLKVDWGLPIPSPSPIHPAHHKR
UniProt P08514, 891-1039 partner limits assumed: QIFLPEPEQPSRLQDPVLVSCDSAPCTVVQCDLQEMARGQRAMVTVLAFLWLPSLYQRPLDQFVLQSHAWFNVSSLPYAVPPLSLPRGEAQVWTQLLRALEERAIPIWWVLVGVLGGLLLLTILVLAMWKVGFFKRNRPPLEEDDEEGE

In patent publication US11685717B2, “Polypeptide integrin antagonists” (The General Hospital Corporation, priority 2018, dated 2023):

Legend:
[1] = test system: human platelets; assay: Platelet aggregation in whole human blood by impedance (Chrono-Log 700); type: cell-based; conditions: for Inhibition of ADP-induced platelet aggregation in whole blood: ADP 20 μM
[2] = biological target: T1, αIIbβ3 (Homo sapiens, UniProt P05106+P08514); assay: Displacement of Alexa488-labeled Hr10 binding to inactive and PT-25-activated αIIbβ3-K562 cells; conditions: comparison of inactive and PT-25-activated αIIbβ3-K562
[3] = biological target: T1, αIIbβ3; assay: Binding of conformation-sensitive mAbs AP5 / LIBS-1 to human platelets; type: cell-based
[4] = biological target: T1, αIIbβ3; assay: Displacement of labeled fibrinogen from preactivated αIIbβ3-K562 cells (flow cytometry); conditions: increasing concentrations; FIGS. 2 and 6B
[5] = test system: human platelets; assay: Thrombin-induced clot retraction in human platelet-rich plasma; type: cell-based; conditions: tirofiban 1.5 μM, m-tirofiban 15 μM; α-thrombin 0.5 unit/mL; FIG. 5

O=C(N[C@@H](Cc1ccc(OCCCCC2CCNCC2)cc1)C(=O)O)c1nc2ccccc2o1
Inhibition of ADP-induced platelet aggregation in whole blood [1]: inhibited platelet aggregation in a dose-dependent manner but with lower affinity compared to tirofiban
Inhibition of ADP-induced platelet aggregation in whole blood ([1]; listed as M-tirofiban): equivalent to that of the drug eptifibatide
Inhibition of human platelet aggregation, pilot study ([1]; pilot study comparing Compounds 1-3): more effective than Compounds 1-2
Binding affinity to inactive versus active αIIbβ3 [2]: showed equivalent binding affinities to inactive and active αIIbβ3
Effect on ADP-induced AP5 expression ([3]; M-tirofiban 1.5 μM added before or after ADP 5 μM, FIG. 6D): suppressed ADP-induced AP5 expression
Activating conformational changes in αIIbβ3 reported by AP5 binding ([3]; human platelets in PRP, saturating concentrations, absence or presence of 20 μM ADP, FIG. 4): did not induce the activating conformational changes in αIIbβ3
Inhibition of APC-fibrinogen binding to K562-αIIbβ3 [4]: inhibited binding of APC-fibrinogen to K562-αIIbβ3 in a dose dependent manner
Clot retraction induced by α-thrombin (photographs) [5]: reduced clot retraction minimally
